Earlier results, collected in publication PMC8380238, “Structure-based virtual screening of CYP1A1 inhibitors: towards rapid tier-one assessment of potential developmental toxicants” (Archives of Toxicology, 2021).

Test system: human CYP1A1
Design: unit not given beside the values
Settings: cited from earlier work

For Diniconazole, the AC50 is given as -0.1525.
